# Experimental data from US20100233086A1, “COMPOUNDS FOR USE IN IMAGING, DIAGNOSING AND/OR TREATMENT OF DISEASES OF THE CENTRAL NERVOUS SYSTEM OR OF TUMORS” (priority 2007, published 2010).
# Test: Plasma radioactivity and plasma metabolites in cynomolgus monkey
# Excerpt: Plasma radioactivity profiles have been monitored over time. […] In addition, metabolites occurring in plasma over time have been monitored (FIGS. 8 and 9) for both ligands.
compound,measurement,setting,value
"C#CCN(C)[C@H](C[18F])Cc1ccccc1 [[^18F]compound 13, N-[(2S)-1-(^18F)fluoro-3-phenylpropan-2-yl]-N-methylprop-2-yn-1-amine]",plasma radioactivity of mother compound relative to [^11C]Deprenyl,"178 MBq vs 155 MBq [^11C]Deprenyl, 30 and 45 min time points",about double
same,metabolite b relative to that observed for [^11C]Deprenyl,"plasma, 30 min time point",one third
